## Antibody variant affinities, Ab-95 light chain, assay 2

From the AlphaSeq antibody data of Engelhart et al. 2022 (doi:10.1038/s41597-022-01779-4), copy in the FLAb collection.

The target is the same throughout: PDVDLGDISGINAS, from the HR2 region of SARS-CoV-2 spike.

Parent scFv Ab-95: VH joined to VL by a (GGGGS)3 linker. Changes lie in the light chain CDRs alone.
VH: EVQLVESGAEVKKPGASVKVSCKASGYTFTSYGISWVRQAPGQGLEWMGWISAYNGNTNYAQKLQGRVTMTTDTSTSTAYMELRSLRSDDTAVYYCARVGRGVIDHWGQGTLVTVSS
VL: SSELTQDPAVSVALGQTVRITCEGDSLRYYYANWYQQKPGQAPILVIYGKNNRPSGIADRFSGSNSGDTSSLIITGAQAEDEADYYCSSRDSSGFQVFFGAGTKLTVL

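The starting antibody came from a phage panning campaign against this peptide. Variants in AAYL52 differ from the parent at up to three CDR positions; double and triple changes were sampled at random. AlphaSeq pools MATa yeast showing the antibodies with MATalpha yeast showing the peptide. The frequency of each diploid, read from paired DNA barcodes, reflects how well the two displayed proteins bind. Read counts were normalised to the haploid input and turned into Kd by a linear fit to BCL2-family pairs of known affinity, for each replicate. The assay was run in three technical replicates.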

Each variant is given by its three light chain CDRs, as the data file delimits them; those of the parent are EGDSLRYYYAN, GKNNRPS, SSRDSSGFQVF. Every variant below is changed at S26 of the VL (sequential numbering). Each Kd is an estimate from the mating assay, the geometric mean of the replicates in which the pair was seen; lower is stronger. "no signal" marks a missing value. The strain was present, yet no cells mated with the target were sequenced in any replicate, which points to weak or no binding. Parent in this assay: reference entry 200 nM, copy in this library 180 nM. As a blank, each scFv also met three strains without target: over library AAYL52, 28% of these pairings were detected, typically at 8.2 µM and seldom below 800 nM.

CDR-L1,CDR-L2,CDR-L3,Kd,replicates with signal
EGDELRWYYAN,GKNNRDS,SSRDSSGFQVF,10 µM,2/3
EGDALRYKYAN,GKNNRPK,SSRDSSGFQVF,97 nM,3/3
EGDRHRYYYAN,GKSNRPS,SSRDSSGFQVF,15 µM,2/3
EGDPHRYYYAN,EKNNRPS,SSRDSSGFQVF,no signal,0/3
EGDYLRYYYAN,GKNNRPS,TSRDSSGFQVC,31 µM,1/3
EGDPLRYYYAN,GKNNRPQ,SSRDSSGFQNF,1.8 µM,1/3
EGDHGRYYYAN,GKNNRPS,SSRDSSGRQVF,12 µM,3/3
EGDKLRYYYAN,GKENRPS,SSRDSSGFQEF,no signal,0/3
EGDYLRYYYAN,GKNNRAS,SSRDSSGFDVF,1.6 µM,2/3
EGDDLRYYYAH,GKNNYPS,SSRDSSGFQVF,no signal,0/3
EGDELRNYYAN,GKNNRPA,SSRDSSGFQVF,980 nM,2/3
EGDILRYYYAN,WKNNRPS,SSRDSSGFQVF,no signal,0/3
EGDTLRYYCAN,GKNNRPS,MSRDSSGFQVF,770 nM,3/3
EGDALRYYYAN,GKNNRPS,SSRDSSGAQVF,61 nM,3/3
EGDRLRYYYAN,GKNNRPS,SSRYSSGFQVP,5.3 µM,2/3
EGDALRYYYAN,GKNNTPS,SSRDMSGFQVF,19 µM,3/3
EGECLRYYYAN,GKNNRQS,SSRDSSGFQVF,3.2 µM,1/3
EGDQYRYYYAN,GKRNRPS,SSRDSSGFQVF,91 µM,2/3
EGDFLRYQYAN,GKNNRPS,TSRDSSGFQVF,100 nM,3/3
EGDWLNYYYAN,GKNNRPS,SSRDSSGFQVF,1.3 µM,3/3
EGDALHYYYAM,GKNNRPS,SSRDSSGFQVF,3.9 µM,3/3
EGDCLRYYYAN,GKNNRPH,SSRDSSGPQVF,2.9 µM,1/3
QWDHLRYYYAN,GKNNRPS,SSRDSSGFQVF,2.5 µM,2/3
EGDVLRYYYAN,GKNNRPW,SSRDSSQFQVF,1.6 µM,2/3
EGDFLRYYYMN,GKNNRPS,SSRDSSGFCVF,1.6 µM,3/3
EHDMLRYYYAN,GKNNRPS,SSRDSSGFQVF,1.8 µM,3/3
EGDLLRYYYAN,GKNNRPS,SSRDSSGYMVF,no signal,0/3
EGDRLRYYYAN,GKNNRPS,SSPDSSGFQNF,no signal,0/3
EGDELRYYYIN,GKWNRPS,SSRDSSGFQVF,7.1 µM,2/3
EGDTLRYYTAN,GKDNRPS,SSRDSSGFQVF,26 µM,3/3
EGDVLRYQYAN,GKNNRPS,STRDSSGFQVF,10 nM,3/3
EGLHLRYYYAN,GKNNRPS,SSRRSSGFQVF,23 µM,3/3
EGDHLCYYYAN,GKNNRPS,SSRSSSGFQVF,14 µM,3/3
RGDPLRYYYAN,GKNNRPS,SSVDSSGFQVF,390 nM,3/3
EADNLRYYYAN,GKNNCPS,SSRDSSGFQVF,5.8 µM,2/3
EGDCLRYYYAN,GKNNRPS,SSRDSSGFVVD,13 µM,2/3
EGDILRYYYAN,GKNNRQS,SSRDSSGFQVL,no signal,0/3
VGDTLRYYYAN,GKNNRPS,SSRDSSGFQVE,760 nM,3/3
EGDTLRYYYAN,GKNWRPS,SSRDSSGFQSF,4.6 µM,2/3
EGDELRYYYAN,GKNNRPS,SSRDSSGFQVF,5.0 µM,3/3
EGDMLRYYYAN,GKNNRPV,SSRDSSGFMVF,16 µM,1/3
EGDCLRYYYAN,GKNNRPS,SSRDMSGLQVF,1.2 µM,1/3
EFDVLRYYYAN,GKNNRFS,SSRDSSGFQVF,37 µM,2/3
EGDELRYYQAN,GLNNRPS,SSRDSSGFQVF,480 nM,3/3
EGDCLSYYYAN,GKNNRPS,SSRDSSGKQVF,4.0 µM,1/3
EMDDLRYYYAV,GKNNRPS,SSRDSSGFQVF,no signal,0/3
EGDDLRYYYAN,GKNQRPS,SSRDSSRFQVF,110 nM,3/3
EGDALRIYYAN,GKNNNPS,SSRDSSGFQVF,4.9 µM,3/3
EGDHLPYYYAN,GKNNRPS,QSRDSSGFQVF,no signal,0/3
EGDKLRYYYAN,GKNNRPS,SSRDSSGMQVC,11 µM,2/3
EGDDLRYYYVN,GKNNRPS,SSRDSCGFQVF,1.1 µM,1/3
CGDKLRYYYAN,GKNNRPS,SSRDSIGFQVF,410 nM,3/3
EGTALRYYYAN,GKNKRPS,SSRDSSGFQVF,790 nM,3/3
EGDPLLYYYAN,GKNNRPS,SCRDSSGFQVF,260 nM,3/3
EGDYLRYYYAN,GKNNRPS,SSRDSSGFQVF,36 nM,3/3
EGDPLRYYWAN,GKNNRPS,SSRDSSGFQVF,210 nM,1/3
EGDRLRYYYAD,GHNNRPS,SSRDSSGFQVF,19 µM,3/3
EGDRLRYYYAN,GKNNRPS,SSRDSSGFQVF,240 nM,3/3
EGDGLRYYGAN,GKNNRPS,SSDDSSGFQVF,6.6 µM,3/3
EGMALRYYYAN,GKNNRPY,SSRDSSGFQVF,260 nM,3/3
EGDKLRYYSAN,GKNNRPS,SSRDSSGFVVF,no signal,0/3
EGDHLRCYYAN,GKNNRPS,SSYDSSGFQVF,34 µM,3/3
EGDMLEYYYAN,GKNNRPS,SSRQSSGFQVF,1.4 µM,1/3
EGDDLRYYYAN,GKNNRPS,SSRDSNGFQVF,1.0 µM,3/3
EGDINRYYYAN,GKNNRPS,SSRDSSGFQVF,560 nM,3/3
EGDGLRYYYAN,GKDNRNS,SSRDSSGFQVF,1.1 µM,3/3
EGDLLRYYYAN,GCNNRPS,SSRGSSGFQVF,no signal,0/3
EGDMERYYYAN,GKNNRPS,SSRDSSGFQVF,390 nM,3/3
EGDQLRYYYAN,GKNNYPS,SSIDSSGFQVF,3.6 µM,1/3
EGDNLRYYYAN,GKNNGPS,SSRDWSGFQVF,7.5 µM,1/3

A selection of 4 entries from above:

CDR-L1,CDR-L2,CDR-L3,Kd,replicates with signal
EGDFLRYYYMN,GKNNRPS,SSRDSSGFCVF,1.6 µM,3/3
QWDHLRYYYAN,GKNNRPS,SSRDSSGFQVF,2.5 µM,2/3
EGDALRYYYAN,GKNNRPS,SSRDSSGAQVF,61 nM,3/3
EGDHLRCYYAN,GKNNRPS,SSYDSSGFQVF,34 µM,3/3